This is a selection; strong and weak results do not stand in their true shares. Some of these compounds have results that are not shown, active ones among them. Active and inactive are the calls of the source. The call rests on the fitted dose curve; in most records, active means well fitted activation curve with a large enough effect; inconclusive means small, poorly fitted or top-dose-only effect, or another doubt; inactive means no such curve, though single readings can be large or run the other way.

Chains of the proteins cited; added tags and fusions are not shown.
UniProt Q03431, whole entry: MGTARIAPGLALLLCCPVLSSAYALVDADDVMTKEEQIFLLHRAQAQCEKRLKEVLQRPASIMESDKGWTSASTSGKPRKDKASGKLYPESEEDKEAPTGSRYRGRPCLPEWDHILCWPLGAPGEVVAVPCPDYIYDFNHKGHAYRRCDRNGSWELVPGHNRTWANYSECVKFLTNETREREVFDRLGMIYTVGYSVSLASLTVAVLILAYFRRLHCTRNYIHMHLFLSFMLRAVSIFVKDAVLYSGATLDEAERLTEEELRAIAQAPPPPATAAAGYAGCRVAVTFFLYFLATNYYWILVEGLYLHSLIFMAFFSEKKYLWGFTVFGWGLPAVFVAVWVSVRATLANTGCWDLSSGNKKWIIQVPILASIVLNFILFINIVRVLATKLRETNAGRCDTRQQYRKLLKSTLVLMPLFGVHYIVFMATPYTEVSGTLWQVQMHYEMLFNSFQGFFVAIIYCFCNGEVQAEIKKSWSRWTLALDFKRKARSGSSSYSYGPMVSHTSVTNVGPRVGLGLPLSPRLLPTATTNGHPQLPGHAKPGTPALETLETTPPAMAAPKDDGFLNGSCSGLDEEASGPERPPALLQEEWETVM

For the assay, the target named is Parathyroid hormone/parathyroid hormone-related peptide receptor (Homo sapiens) (UniProt Q03431). The experiment in a line: qHTS for PTHR1 Agonists: Primary Screen. Further: nearly all actives have a fitted effect of over 55% in size. The following applies: HEK293 GP2 PTHR1 cells, GloSensor cAMP luminescence, 1 h; activation: at 115 µM (top of the series) unless noted. (In qHTS, concentration-response curves come from the screen itself.)
As to `Cc1cc(C(=O)NCC2(N3CCCCC3)CCCCC2)ccc1[N+](=O)[O-]`, the activation was inactive: -13.3%.
As to `CCN1CCCC(OC(=O)C2(O)c3ccccc3C=Cc3ccccc32)C1` (configuration not stated), the activation result is “inactive”.
`O=C(NCC1(N2CCCCC2)CCCCC1)c1cccc(Br)c1`: the activation result is “inactive”.
Take `COc1ccc(C(=O)NCC2(N(C)C)CCCCC2)cc1`: the activation result was “inactive”.
Consider `CCOc1cccc(C(=O)NCC2(N(C)C)CCCCC2)c1`, for which the activation entry is “inactive”.
Take `C=CCN1CCN(CCOC(=O)C(O)(c2ccccc2)c2ccccc2)CC1`: the activation result is “inactive”.
In the case of `O=C(NCC1(N2CCCCC2)CCCCC1)c1cc(F)c(F)cc1Cl`, the activation is inactive: 5.12%.
For the molecule `CCCCOc1ccccc1C(=O)NCC1(N(C)C)CCCCC1`, the activation is inactive: 4.82%.
Turning to `CN(C)C1(CNC(=O)c2ccccc2[N+](=O)[O-])CCCCC1`, the activation entry was “inactive”.
For `Cc1ccccc1C(=O)NCC1(N2CCCCC2)CCCCC1`, the activation result is “inactive”.
Same read-out and setting: to `CN(C)C1CCCC1OC(=O)C(O)(c1ccccc1)c1ccccc1` (configuration not stated) belongs inactive: -19.1%; to `CN(C)c1ccc(C(=O)NCC2(N(C)C)CCCCC2)cc1`, “inactive”; to `CN(C)C1(CNC(=O)c2ccccc2F)CCCCC1`, inactive: -9.96%.
Turning to `Cc1ccc(C(=O)NCC2(N3CCCCC3)CCCCC2)cc1`, the activation entry is “inactive”.
Consider `CC(C)N1C(=O)CC2(CCN(CCOC(=O)C(O)(c3ccccc3)c3ccccc3)CC2)C1=O`, for which the activation is inactive: -29.4% [at 57.5 µM].
Take `CCN(CC)CC(C)C(C)OC(=O)C(O)(c1ccccc1)c1ccccc1` (configuration not stated): the activation entry is “inactive”.
The same measure, in the same setting: in the case of `CN(C)C1(CNC(=O)c2cccc(Cl)c2)CCCCC1` it was inactive: -21%; in that of `COc1cc(SC)ccc1C(=O)NCC1(N(C)C)CCCCC1`, inactive: -13.2%; in that of `CN1[C@@H]2CC[C@H]1CC(OC(=O)C(O)(c1ccccc1)c1ccccc1)C2` (some centres not stated), “inactive”.
In the case of `O=C(NCC1(N2CCCCC2)CCCCC1)c1cc([N+](=O)[O-])ccc1Cl`, the activation result is “inactive”.
Take `CN(C)c1cccc(C(=O)NCC2(N(C)C)CCCCC2)c1`: the activation is inactive: -8.4%.
`CC(C)Oc1ccc(C(=O)NCC2(N(C)C)CCCCC2)cc1`: the activation is inactive: -4.73% and the molecule was called inactive.
For `O=C(OCCN1CCCC1)C(O)(c1ccccc1)c1ccccc1`, the activation was inactive: -21.5%.
As for `Cc1cccc(C(=O)NCC2(N(C)C)CCCCC2)c1`, the activation entry was “inactive”.
Regarding `COc1cc(C(=O)NCC2(N(C)C)CCCCC2)cc(OC)c1OC`, the activation result was “inactive”.
Still for that read-out and setting: in the case of `COc1ccc(Br)c(C(=O)NCC2(N3CCCCC3)CCCCC2)c1` it was inactive: 13.3%.
On to `C=C(C)C#CC(O)(C(=O)OC1CCN(C)CC1)c1ccccc1` (configuration not stated), for which the activation is inactive: -10.8%.
With `CC(C)COc1ccc(C(=O)NCC2(N(C)C)CCCCC2)cc1`, the activation was inactive: -17.5%.
Turning to `O=C(OC1CN2CCC1CC2)C(CO)(c1ccccc1)c1ccccc1` (configuration not stated), the activation was inactive: -52.9% [at 57.5 µM].
Take `COc1cccc(C(=O)NCC2(N3CCOCC3)CCCCC2)c1`: the activation was inactive: -9.69%.
As for `O=C(NCC1(N2CCCCC2)CCCCC1)c1cccc(Cl)c1`, the activation is inactive: -48.3%.
With `COc1ccc(C(=O)NCC2(N(C)C)CCCCC2)cc1Cl`, the activation entry was “inactive”.
On the same count and under the same terms, in the case of `COc1cccc(C(=O)NCC2(N3CCCCC3)CCCCC2)c1` it was “inactive”; in that of `COc1ccc(Cl)cc1C(=O)NCC1(N(C)C)CCCCC1`, inactive: -5.95%.
`COc1cc(C(=O)NCC2(N(C)C)CCCCC2)c([N+](=O)[O-])cc1OC`: the activation result was “inactive”.
The same measure, in the same setting: in the case of `CN(C)C1(CNC(=O)c2ccc(Br)cc2)CCCCC1` it was inactive: -18.5%.

For the origin of these results see PubChem BioAssay AID743266 (National Center for Advancing Translational Sciences (NCATS), 2014).
